The record followed here is US8703722B2, “Inhibitors of F18+ E coli binding” (priority 2008, dated 2014).

The subject of this experiment is F18-positive E. coli strain 107/86. Briefly: Carbohydrate inhibition in the in vitro villous adhesion assay (bacteria pre-incubated with saccharide). It is filed as cell-based, Escherichia coli. As to conditions: Example 19, villi of one pig. The source says: The nature of the F18R on porcine small intestinal villous enterocytes was investigated using an in vitro villous adhesion inhibition assay (Cox, E., Houvenaghel, A., 1993. Vet. Microbiol. 34(1), 7-18; Verdonck, F., Cox, E., van Gog, K., Van der Stede, Y., Duchateau, L., Deprez, P., Goddeeris, B. M., 2002. Vaccine 20(23-24), 2995-3004). Briefly, a 20 cm intestinal segment was collected from the mid jejunum of a euthanized pig, rinsed three times with ice cold PBS, and fixed with Krebs-Henseleit buffer (160 mM, pH 7.4) containing 1% (v/v) formaldehyde for 30 min at 4° C. Thereafter, the villi were gently scraped from the mucosae with a glass slide and stored in Krebs-Henseleit buffer at 4° C. Treatment of villi with acetone, methanol, 1% Triton® X-100, 10 mM NaIO4 in 0.2M sodium acetate, pH 4.5, or 0.2M sodium acetate, pH 4.5, without NaIO4, respectively, was performed at room temperature on a rotating wheel in a volume of 500 μl during 1 h. Next, the villi were washed 6 times with Krebs-Henseleit buffer followed by addition of 4×10^8 bacteria of the F18 positive reference E. coli strain (107/86), or the F4ac-expressing E. coli strain GIS 26, to an average of 50 villi in a total volume of 500 μl PBS, supplemented with 1% (w/v) D-mannose in order to prevent adhesion mediated by type 1 pili. These mixtures were incubated at room temperature for 1 h while being gently shaken. Villi were examined by phase-contrast microscopy at a magnification of 600, and the number of bacteria adhering along 50 μm brush border was quantitatively evaluated by counting the number of adhering bacteria at 20 randomly selected places, after which the mean bacterial adhesion was calculated.
The F18-positive E. coli strain 107/86 (8×10^7 bacteria) was incubated with different concentrations (10 mg/ml, 1 mg/ml, […]) of blood group H type 1 pentasaccharide (Fucα2Galβ3GlcNAcβ3Galβ4Glc) or lacto-N-tetraose saccharide (Galβ3GlcNAcβ3Galβ4Glc) (Glycoseparations, Moscow, Russia) in a final volume of 100 μl PBS, for 1 h at room temperature, while being gently shaken. The mixtures were then added to the villi, and again incubated for 1 h at room temperature with gentle shaking. Thereafter, the villi were examined by phase-contrast microscopy at a magnification of 600, and the number of bacteria adhering along a […] brush border was quantitatively evaluated by counting the number of adhering bacteria at 20 randomly selected places, after which the mean bacterial adhesion was calculated. Villi of two different F18R-positive pigs were used, and the countings were performed in triplicate.
The F18-positive E. coli strain 107/86 (8×10^7 bacteria) was incubated with 1 mg of blood group H type 1 pentasaccharide (H5-1, Fucα2Galβ3GlcNAcβ3Galβ4Glc), blood group A type 1 hexasaccharide (A6-1, GalNAcα3(Fucα2)Galβ3GlcNAcβ3Galβ4Glc), blood group B type 1 hexasaccharide (B6-1, Galα3(Fucα2)Galβ3GlcNAcβ3Galβ4Glc) or lacto-N-tetraose saccharide (LNT, Galβ3GlcNAcβ3Galβ4Glc) (Elicityl, Grenoble, France) in a final volume of 100 μl PBS, for 1 h at room temperature, while being gently shaken. The mixtures were then added to the villi, and again incubated for 1 h at room temperature with gentle shaking. Thereafter, the villi were examined by phase-contrast microscopy, and adhering bacteria were quantified as described above. Villi of two different F18R-positive pigs were used, and the countings were performed in triplicate.

Take “A6-1/HSA: blood group A type 1 hexasaccharide (GalNAcα3(Fucα2)Galβ3GlcNAcβ3Galβ4Glc) conjugated to HSA; 9 mole oligosaccharide/mole protein”: the “Inhibition of F18+ E. coli adherence to porcine intestinal villi” value by setting is: (0.2 μg (protein) in 100 μl PBS) 11.3%; (2 μg (protein) in 100 μl PBS) 30.6%. Besides, the “Reduction of F18+ E. coli adherence to porcine intestinal villi” value (shortened to “Reduction of F18+ E. coli adherence”) (10 μg (protein) in 100 μl PBS) came to 67.1% and the “Reduction of F18+ E. coli adherence” value (20 μg (protein) in 100 μl PBS) is recorded as 69.1%.

“HSA: unconjugated HSA carrier protein used as control [reference compound]”: the “Reduction of F18+ E. coli adherence” value (20 μg (protein) in 100 μl PBS) is recorded as “No inhibition”.
